Results from US10828301B2, “2,4-pyrimidinediamine compounds and their uses” (Rigel Pharmaceuticals, Inc, priority 2002, dated 2020).
Read-outs that look alike come from different tables or passages of the source.

Columns and labels:
[1] = parameters: species or system rabbits and primates; mice and rats; settings: in vivo
Text: A short discussion of key toxicology studies is provided.

[2] = mouse, in vivo, po
Procedure: Several non-GLP pilot toxicity studies have been conducted in rodents. […] In a 14-day oral toxicity study in the mouse was conducted with doses of 100, 300 and 1000 mg/kg.

[3] = Sheep model of allergic asthma (Ascaris suum challenge); type: in vivo; settings: administered in an aqueous suspension
Procedure: Sheep develop bronchoconstriction within minutes of exposure to inhaled antigen (Ascaris suum), with maximal airflow obstruction during the early allergic response (EAR). Release of preformed mast cell mediators is likely responsible for this early phase of airflow obstruction. […] In the sheep, AHR develops a few hours following antigen challenge, and can persist for up to 2 weeks.
In the sheep model of allergic asthma, sheep are administered aerosols of test article via an endotracheal tube, followed by an aerosol challenge with antigen extracted from the roundworm, Ascaris suum, to which the sheep are naturally allergic. Allergen challenge leads to direct bronchoconstriction (both EAR and LAR) and a persistent non-specific AHR. These three characteristics are similar to those seen in human allergic asthmatics. The activity of the test agent is determined by changes in the lung resistance (RL), which is calculated from measurements of transpulmonary pressure, flow, and respiratory volume. […] The LAR is a less pronounced increase in RL, which starts approximately 5-6 hours following allergen challenge and is resolved by 8 hours post-challenge. Twenty-four hours after the challenge, a dose response to carbachol is measured to determine the AHR, which is expressed as the dose of carbachol required to increase RL by 400% over baseline. […]

Row | Compound | core safety pharmacology battery [1] | genetic toxicology testing [1] | tolerability ([2]; 100 mg/kg) | tolerability ([2]; 300 mg/kg) | effect on the EAR (in words) [3]
1 | Oc1cccc(Nc2ncc(F)c(Nc3cccc(O)c3)n2)c1 [Compound R921218, N2,N4-Bis(3-hydroxyphenyl)-5-fluoro-2,4-pyrimidinediamine] | no adverse findings | no evidence for mutagenic or clastogenic potential | – | – | –
2 | Nc1cccc(Nc2ncc(F)c(Nc3cccc(N)c3)n2)c1 [Compound R921302, N2,N4-Bis(3-aminophenyl)-5-fluoro-2,4-pyrimidinediamine] | – | – | well tolerated | not tolerated | failed to inhibit the EAR
